From patent US20140220094A1, “METHODS AND COMPOSITIONS FOR A LAPAROSCOPIC SURGERY” (Prelief Inc., priority 2009, published 2014)

Assay: Water solubility of CGP (saturated solution)
Assay type: physicochemical
Source text: CGP has a relatively low water solubility. A saturated CGP solution only contains about 1% CGP. Thus, CGP exists in a suspension in a liquid composition containing higher concentrations of CGP. In the absence of a stabilizer, CGP possibly exists in gritty grains, which can be abrasive and thus irritate, not soothe, the urethral surface.

CGP content of a saturated CGP solution (water solubility): about 1%
Substance: calcium glycerophosphate [CGP]
